# AlphaSeq binding of Ab-91 heavy chain variants to a spike HR2 peptide

Antigen: PDVDLGDISGINAS, a 14-residue peptide of the SARS-CoV-2 spike HR2 region.

Parent: Ab-91, a human scFv built as VL, a 15-residue (Gly4Ser)3 linker, VH. Only the CDRs of the heavy chain vary.
VL: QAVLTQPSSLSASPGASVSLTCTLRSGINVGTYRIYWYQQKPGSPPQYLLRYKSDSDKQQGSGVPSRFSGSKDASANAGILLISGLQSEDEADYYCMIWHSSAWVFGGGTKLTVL
VH: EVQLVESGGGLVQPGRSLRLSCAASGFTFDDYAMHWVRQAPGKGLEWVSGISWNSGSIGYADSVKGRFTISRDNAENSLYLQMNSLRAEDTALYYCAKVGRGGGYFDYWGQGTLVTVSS

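AAYL51 was designed without a model: most single CDR substitutions and a random sample of double and triple ones. Affinity was read by AlphaSeq, a pooled yeast mating assay with surface-displayed partners. The frequency of each diploid, read from paired DNA barcodes, reflects how well the two displayed proteins bind. A regression on co-assayed BCL2-family reference pairs converts the normalised counts of each replicate to an apparent Kd. The assay was run in three technical replicates.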

Substitutions are numbered in sequence along the VH above, starting at 1 (not Kabat). Values are log10 of the apparent Kd in nM; lower means stronger binding. "ND" marks a missing value. The strain was present, yet no cells mated with the target were sequenced in that replicate, which points to weak or no binding. Empty control strains, which show no peptide, gave a signal in 21% of pairings with library AAYL51; the median was 4.54 and 95% of these signals were weaker than 3.26. No background was subtracted. The control count says in how many pairings with the empty strains this scFv gave a signal, with their mean in brackets.

{"changes": "T28G/F29N/G59T", "log10 Kd, replicates": "ND / ND / ND", "signal with controls": "1/9 (3.44)"}
{"changes": "Y60W/A61H/R101H", "log10 Kd, replicates": "5.04 / 6.65 / 5.59", "signal with controls": "6/9 (4.50)"}
{"changes": "S55P/S57V/V99Q", "log10 Kd, replicates": "4.47 / ND / 3.17", "signal with controls": "0/9"}
{"changes": "F27I/K65G/G104S", "log10 Kd, replicates": "ND / ND / ND", "signal with controls": "0/9"}
{"changes": "F27A/Y32F", "log10 Kd, replicates": "ND / ND / ND", "signal with controls": "3/9 (3.97)"}
{"changes": "V64C/K65I/V99N", "log10 Kd, replicates": "1.52 / 1.74 / 1.32", "signal with controls": "1/9 (5.11)"}
{"changes": "H35E/G50F/G102S", "log10 Kd, replicates": "ND / ND / 3.32", "signal with controls": "2/9 (4.01)"}
{"changes": "I51S/S63F/K65Y", "log10 Kd, replicates": "ND / ND / ND", "signal with controls": "0/9"}
{"changes": "G56S/V64H/G102A", "log10 Kd, replicates": "4.54 / 5.16 / 5.53", "signal with controls": "4/9 (4.65)"}
{"changes": "T28N/S55L/V99Q", "log10 Kd, replicates": "4.97 / ND / ND", "signal with controls": "5/9 (4.92)"}
{"changes": "Y32E/H35D/A61R", "log10 Kd, replicates": "6.00 / ND / 4.58", "signal with controls": "4/9 (4.58)"}
{"changes": "D31E/Y32N/G59C", "log10 Kd, replicates": "ND / ND / ND", "signal with controls": "0/9"}
{"changes": "F29C/G50K/G102F", "log10 Kd, replicates": "ND / ND / 4.71", "signal with controls": "4/9 (4.07)"}
{"changes": "G26K/T28E/M34Q", "log10 Kd, replicates": "3.87 / 4.75 / 4.69", "signal with controls": "0/9"}
{"changes": "S55M/G56R/Y105P", "log10 Kd, replicates": "6.09 / ND / ND", "signal with controls": "2/9 (4.48)"}
{"changes": "D31S/H35S/N54Q", "log10 Kd, replicates": "ND / ND / ND", "signal with controls": "0/9"}
{"changes": "F27L/D30T/W53L", "log10 Kd, replicates": "5.18 / 5.30 / ND", "signal with controls": "5/9 (5.16)"}
{"changes": "W53C/V99I", "log10 Kd, replicates": "1.20 / 1.28 / 0.74", "signal with controls": "1/9 (5.38)"}

The first 3 entries again:

{"changes": "T28G/F29N/G59T", "log10 Kd, replicates": "ND / ND / ND", "signal with controls": "1/9 (3.44)"}
{"changes": "Y60W/A61H/R101H", "log10 Kd, replicates": "5.04 / 6.65 / 5.59", "signal with controls": "6/9 (4.50)"}
{"changes": "S55P/S57V/V99Q", "log10 Kd, replicates": "4.47 / ND / 3.17", "signal with controls": "0/9"}

Reference: Engelhart et al. 2022, doi:10.1038/s41597-022-01779-4. File: FLAb, binding data.